{"sequences": {"note": "Protein sequences, listed by entry. Tags and fused reporters are not part of them. Lines headed by an entry give the natural chain unless they say otherwise; changes in a name come on top.", "UniProt P42338": "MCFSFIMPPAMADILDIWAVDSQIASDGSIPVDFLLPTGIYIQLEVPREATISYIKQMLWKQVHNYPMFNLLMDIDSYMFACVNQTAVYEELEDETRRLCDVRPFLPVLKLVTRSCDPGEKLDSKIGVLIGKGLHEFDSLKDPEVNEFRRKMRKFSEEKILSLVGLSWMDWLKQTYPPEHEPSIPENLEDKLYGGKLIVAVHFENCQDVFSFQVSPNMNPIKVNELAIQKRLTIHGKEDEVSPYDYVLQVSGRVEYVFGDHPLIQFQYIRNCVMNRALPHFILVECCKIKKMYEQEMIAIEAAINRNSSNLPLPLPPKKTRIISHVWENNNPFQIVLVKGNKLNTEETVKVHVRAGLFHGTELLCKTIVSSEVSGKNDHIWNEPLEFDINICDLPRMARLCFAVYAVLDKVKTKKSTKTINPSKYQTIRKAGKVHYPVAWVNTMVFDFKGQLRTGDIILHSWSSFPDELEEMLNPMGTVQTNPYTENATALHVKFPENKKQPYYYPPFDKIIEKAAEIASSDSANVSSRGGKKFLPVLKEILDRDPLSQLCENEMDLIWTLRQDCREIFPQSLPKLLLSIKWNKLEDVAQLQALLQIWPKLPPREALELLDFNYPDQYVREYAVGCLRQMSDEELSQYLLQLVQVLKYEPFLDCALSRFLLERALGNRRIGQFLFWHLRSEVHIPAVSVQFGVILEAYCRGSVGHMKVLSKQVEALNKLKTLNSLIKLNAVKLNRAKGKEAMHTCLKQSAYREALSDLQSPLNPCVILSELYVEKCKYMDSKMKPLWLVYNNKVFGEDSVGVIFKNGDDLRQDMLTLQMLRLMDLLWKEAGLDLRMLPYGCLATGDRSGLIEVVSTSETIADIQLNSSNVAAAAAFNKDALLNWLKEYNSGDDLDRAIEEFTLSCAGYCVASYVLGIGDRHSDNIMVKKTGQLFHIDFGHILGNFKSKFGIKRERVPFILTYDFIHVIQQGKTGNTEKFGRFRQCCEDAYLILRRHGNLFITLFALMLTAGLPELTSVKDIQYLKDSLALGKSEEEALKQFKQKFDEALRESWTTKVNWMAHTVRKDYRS"}, "source": "BindingDB's records for patent US9828378", "about": "(Intellikine, 2017)", "target": "Phosphatidylinositol 4,5-bisphosphate 3-kinase catalytic subunit beta isoform (Homo sapiens, UniProt P42338)", "data": [{"smiles": "CC(C)n1nc(-c2cc3c(Cl)c(O)ccc3[nH]2)c2c(N)ncnc21", "note": "[US9828378, # 22]", "values": [{"measurement": "IC50", "result": "> 0.5", "unit": "µM"}]}]}
